Laboratory results taken from patent publication US11072625B2 (GLYCOMIMETICS, INC., priority 2016, dated 2021).

Sequences of proteins named here, by UniProt entry; tags and fusion partners are left off. A line that says so, or that is headed by a name, gives the form on record, which may keep a tag or linker. Residues count along the entry.
UniProt P16581, 22-556 with tags or gaps limits assumed: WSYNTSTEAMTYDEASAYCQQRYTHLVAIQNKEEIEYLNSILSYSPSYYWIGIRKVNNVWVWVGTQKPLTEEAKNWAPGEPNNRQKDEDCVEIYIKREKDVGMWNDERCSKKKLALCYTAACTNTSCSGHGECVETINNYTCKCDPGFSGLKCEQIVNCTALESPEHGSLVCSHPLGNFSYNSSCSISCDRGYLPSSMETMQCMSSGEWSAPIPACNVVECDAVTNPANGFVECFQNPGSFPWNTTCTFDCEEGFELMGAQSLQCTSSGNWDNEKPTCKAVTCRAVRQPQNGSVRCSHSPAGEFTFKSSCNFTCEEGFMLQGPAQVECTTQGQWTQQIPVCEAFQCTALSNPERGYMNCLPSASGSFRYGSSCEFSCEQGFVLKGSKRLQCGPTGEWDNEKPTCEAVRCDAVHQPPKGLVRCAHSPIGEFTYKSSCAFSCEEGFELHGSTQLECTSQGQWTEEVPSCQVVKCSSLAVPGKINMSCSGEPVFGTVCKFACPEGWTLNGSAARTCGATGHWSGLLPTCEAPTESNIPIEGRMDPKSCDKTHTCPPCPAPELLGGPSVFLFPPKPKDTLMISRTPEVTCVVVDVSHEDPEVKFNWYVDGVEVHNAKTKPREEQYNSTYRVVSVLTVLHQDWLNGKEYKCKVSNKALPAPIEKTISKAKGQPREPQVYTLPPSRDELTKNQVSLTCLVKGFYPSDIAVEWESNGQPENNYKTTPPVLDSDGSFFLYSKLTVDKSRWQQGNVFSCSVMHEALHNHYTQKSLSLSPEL

molecular target: recombinant human E-selectin/CD63E Fc Chimera (Homo sapiens, UniProt P16581); assay: E-selectin activity, analysis by SPR (Biacore X100); settings: Biacore X100, CM5 chip, E-selectin Fc chimera captured on anti-human IgG (Fc) antibody

`CCC1CC(C(=O)NCCNC(=O)c2cn(CCOCCOCCOCCOCCOCCC(=O)NCCCCC(NC(=O)CCOCCOCCOCCOCCOCCn3cc(C(=O)NCCNC(=O)C4CC(CC)C(OC5OC(C)C(O)C(O)C5O)C(OC5OC(CO)C(O)C(OC(CC6CCCCC6)C(=O)O)C5NC(C)=O)C4)nn3)C(=O)OCc3ccccc3)nn2)CC(OC2OC(CO)C(O)C(OC(CC3CCCCC3)C(=O)O)C2NC(C)=O)C1OC1OC(C)C(O)C(O)C1O` (stereo not shown) and `CCC1CC(C(=O)NCCNC(=O)c2cn(CCOCCOCCOCCOCCOCCC(=O)NCCCCC(NC(=O)CCOCCOCCOCCOCCOCCn3cc(C(=O)NCCNC(=O)C4CC(CC)C(OC5OC(C)C(O)C(O)C5O)C(OC5OC(CO)C(O)C(OC(CC6CCCCC6)C(=O)O)C5NC(C)=O)C4)nn3)C(=O)O)nn2)CC(OC2OC(CO)C(O)C(OC(CC3CCCCC3)C(=O)O)C2NC(C)=O)C1OC1OC(C)C(O)C(O)C1O` (stereo not shown) are within 1.5-fold of each other in Kd: 5.1 nM for the first, 5.5 nM for the second.

`CC[C@H]1C[C@@H](C(=O)NCCNC(=O)CCOCCOCCOCCOCCOCCOCCOCCOCCOCCOCCOCCOCCOCCOCCOCCOCCOCCOCCOCCOCCOCCOCCOCCOCCOCCC(=O)NCCNC(=O)[C@@H]2C[C@H](CC)[C@@H](O[C@@H]3O[C@@H](C)[C@@H](O)[C@@H](O)[C@@H]3O)[C@H](O[C@@H]3O[C@H](CO)[C@H](O)[C@H](O[C@@H](CC4CCCCC4)C(=O)N4CCC4)[C@H]3NC(C)=O)C2)C[C@@H](O[C@@H]2O[C@H](CO)[C@H](O)[C@H](O[C@@H](CC3CCCCC3)C(=O)N3CCC3)[C@H]2NC(C)=O)[C@@H]1O[C@@H]1O[C@@H](C)[C@@H](O)[C@@H](O)[C@@H]1O` and `CC[C@H]1C[C@@H](C(=O)NCCNC(=O)c2cn(CCOCCOCCOCCOCCOCCn3cc(C(=O)NCCNC(=O)[C@@H]4C[C@H](CC)[C@@H](O[C@@H]5O[C@@H](C)[C@@H](O)[C@@H](O)[C@@H]5O)[C@H](O[C@@H]5O[C@H](CO)[C@H](O)[C@H](O[C@@H](CC6CCCCC6)C(=O)N6CCC6)[C@H]5NC(C)=O)C4)nn3)nn2)C[C@@H](O[C@@H]2O[C@H](CO)[C@H](O)[C@H](O[C@@H](CC3CCCCC3)C(=O)N3CCC3)[C@H]2NC(C)=O)[C@@H]1O[C@@H]1O[C@@H](C)[C@@H](O)[C@@H](O)[C@@H]1O` are within 1.5-fold of each other in Kd: 2.3 nM for the first, 2 nM for the second.
